This is an account of results in PubChem BioAssay AID485346 (Sanford-Burnham Center for Chemical Genomics, 2010).

Chains of the proteins cited; added tags and fusions are not shown.
UniProt O15151, whole entry, looked up: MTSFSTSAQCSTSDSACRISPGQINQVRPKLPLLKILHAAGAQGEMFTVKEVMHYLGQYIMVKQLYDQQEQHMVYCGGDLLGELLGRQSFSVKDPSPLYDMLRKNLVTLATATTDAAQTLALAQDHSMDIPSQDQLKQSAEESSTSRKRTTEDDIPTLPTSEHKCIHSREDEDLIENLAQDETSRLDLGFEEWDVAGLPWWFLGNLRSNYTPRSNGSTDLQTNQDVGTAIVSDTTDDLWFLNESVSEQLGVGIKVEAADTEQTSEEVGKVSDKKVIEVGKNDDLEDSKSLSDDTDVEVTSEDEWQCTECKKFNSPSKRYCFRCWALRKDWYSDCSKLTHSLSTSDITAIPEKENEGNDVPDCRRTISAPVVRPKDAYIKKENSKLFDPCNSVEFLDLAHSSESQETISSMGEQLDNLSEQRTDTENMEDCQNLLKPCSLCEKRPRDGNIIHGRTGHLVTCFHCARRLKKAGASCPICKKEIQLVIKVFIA
UniProt Q00987, whole entry, looked up: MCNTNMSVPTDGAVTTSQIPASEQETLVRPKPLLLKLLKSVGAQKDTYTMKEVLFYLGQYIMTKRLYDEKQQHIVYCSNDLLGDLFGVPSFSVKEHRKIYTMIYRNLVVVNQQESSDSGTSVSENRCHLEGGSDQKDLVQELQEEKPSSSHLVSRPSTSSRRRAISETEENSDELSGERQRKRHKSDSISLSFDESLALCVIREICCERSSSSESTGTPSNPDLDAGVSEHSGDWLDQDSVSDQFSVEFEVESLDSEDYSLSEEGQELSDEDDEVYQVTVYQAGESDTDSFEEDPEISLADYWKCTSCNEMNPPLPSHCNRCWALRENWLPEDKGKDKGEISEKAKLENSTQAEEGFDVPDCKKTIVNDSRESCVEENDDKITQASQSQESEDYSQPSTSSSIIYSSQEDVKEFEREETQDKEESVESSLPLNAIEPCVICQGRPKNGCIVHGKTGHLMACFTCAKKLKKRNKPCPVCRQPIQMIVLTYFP

Each structure is given as a SMILES string. This is a selection; strong and weak results do not stand in their true shares. Calls of active or inactive are those of the source.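 How the source made its calls: active means inhibition of at least 50% at 8 µM in the primary screen; inactive means the rest.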

For this test, the target named is Protein Mdm4 (Homo sapiens) + E3 ubiquitin-protein ligase Mdm2 (Homo sapiens) (UniProt O15151+Q00987). Briefly: disruptors of Mdm2/MdmX RING complex – cell-based, luminescence, split luciferase, SaOS-2, uHTS, primary screen (AID 485346). To be noted: SaOS-2 split-luciferase Mdm2/MdmX complementation, at 8 µM, hits give high values.
As to `O=C(NCC1(N2CCOCC2)CCCCC1)c1cc(=O)[nH]c2ccccc12`, the inhibition is inactive: 10.1%.

On to `COc1cc(C(=O)NCC2(N3CCCCC3)CCCCC2)ccc1OC(F)F`, for which the inhibition is inactive: -4.2%. For the compound `CC(C)c1ccc(C(=O)NCC2(N3CCOCC3)CCCCC2)cc1`, the inhibition is inactive: 7.22%.

Turning to `COc1ccc(NC2CCN(C(=O)OC(C)(C)C)CC2)cc1`, the inhibition was inactive: 4.46%.

Consider `CN1CCN(CCOC(=O)C(O)(c2ccccc2)c2ccccc2)CC1`, for which the inhibition was inactive: -25.8%.

Turning to `O=C(NCC1(N2CCCCC2)CCCCC1)c1cccc(C(F)(F)F)c1`, the inhibition was inactive: -11.7%. Regarding `CCN1CCC(Nc2ccc(Cl)cc2)CC1`, the inhibition was inactive: 6.72%. For the compound `N#CC1(Nc2ccccc2)CCN(CCc2ccccc2)CC1`, the inhibition was inactive: 15.6%.

As for `CSc1ccc(C(=O)NCC2(N3CCOCC3)CCCCC2)cc1`, the inhibition is inactive: 10.8%. For the compound `O=C(NCC1(N2CCCCC2)CCCCC1)c1cccc([N+](=O)[O-])c1`, the inhibition is inactive: 1.9%. For the compound `O=C(NCC1(N2CCCCC2)CCCCC1)c1ccc(OC(F)F)cc1`, the inhibition is inactive: 2.46%. As to `O=C(NCC1(N2CCCCC2)CCCCC1)c1cncc(Br)c1`, the inhibition is inactive: -20.4%. As for `CN1CCC(Nc2cccc(F)c2)CC1`, the inhibition was inactive: 0.196%.

For the compound `COc1cc(OC)c(C(=O)NCC2(N(C)C)CCCCC2)cc1OC`, the inhibition is inactive: 15.9%. Regarding `O=C(NCC1(N2CCOCC2)CCCCC1)c1cc(F)c(F)cc1Cl`, the inhibition is inactive: 10.6%.

For the compound `CC(C)c1ccc(NC2CCN(C(=O)OC(C)(C)C)CC2)cc1`, the inhibition was inactive: -24.7%. With `COc1ccc(CN(CCCl)CCCl)cc1Cl`, the inhibition is inactive: -8.69%. In the case of `CN(C)c1cccc(C(=O)NCC2(N3CCCCC3)CCCCC2)c1`, the inhibition is inactive: -14.7%.

As to `O=C(OC1CN2CCC1CC2)C1c2ccccc2Oc2ccccc21` (stereo not drawn), the inhibition was inactive: 11.6%. As to `N#CC1(Nc2ccccc2)CCN(Cc2ccccc2)CC1`, the inhibition was inactive: -21.2%.

With `O=C(NCC1(N2CCCCC2)CCCCC1)c1ccc(Cl)s1`, the inhibition is inactive: 10.6%. As for `COc1ccc(Cl)cc1C(=O)NCC1(N2CCOCC2)CCCCC1`, the inhibition is inactive: 12.5%. On to `CCOC(=O)N1CCC(Nc2ccc(OC)cc2)CC1`, for which the inhibition is inactive: 8.13%. The same measure for `O=C(NCC1(N2CCCCC2)CCCCC1)c1ccc(Cl)nc1`: inactive: 23.5%; for `Cc1cc(C)cc(N(C(=O)c2ccccc2)C2CCN(C(=O)OC(C)(C)C)CC2)c1`: inactive: 13%; for `O=C(NCC1(N2CCOCC2)CCCCC1)c1cc2ccccc2o1`: inactive: 4.86%. For `CSc1ccccc1C(=O)NCC1(N2CCCCC2)CCCCC1`, the inhibition was inactive: -18.9%. As to `COc1ccc(C(=O)NCC2(N3CCCCC3)CCCCC2)cc1`, the inhibition was inactive: 6.81%.
